# Source: PubChem (several laboratories)
# UUG fidelity = modulators of yeast start codon fidelity, primary screen, whole organism, S. cerevisiae, single point, plate reader | AID 602363, 2012 | S. cerevisiae UUG-firefly luciferase reporter, luminescence/redox ratio | activity score, % at 18.7 µM | hit rate 0.13% among 350,000;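 active = replicate mean at a twofold rise or more, about +100% in these data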;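 also: firefly luciferase made from a UUG start codon reports start codon fidelity; reporter light over untreated wells divided by growth signal over untreated wells; some hits fall short of that in this replicate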
# MC4R antag cAMP = human MC4R antagonism in cAMP assay | P32245 | MC4R-expressing cells, MTII-stimulated cAMP, LANCE TR-FRET | inhibition, % at 6.5 µM | 360,000 compounds, 0.48% hits;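 active = inhibition above its plate's cutoff, the mean of tested wells on that plate plus 3 SD, cut at about 29% in these data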
#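 material = U2OS cells stably expressing human melanocortin 4 receptor (MC4R) | also added = Melanotan II challenge | dosing = single nominal compound dose of 6.5 µM | detection = TR-FRET with Eu-cAMP and labeled anti-cAMP, 671 nm | replication = singlicate | timing = compound 30 min, challenge 1 h, detection 1 h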
# ALR inh = inhibitors of human sulfhydryl oxidase ALR; 290,000 tested, 3.8% active; inhibition, % (test concentration not listed); AID 485317; P55789; purified ALR, DTT oxidation, H2O2 HRP-luminol luminescence;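 active = mean and each replicate at 75% or more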;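 also: stock transfer was 7.5 nL into about 7.5 µL; 0% = neutral wells and 100% = wells with inactivated enzyme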
# MC4R barr agon = agonists of human melanocortin 4 receptor (MC4R) beta-arrestin; U2OS MC4R beta-arrestin complementation, luminescence; percent of melanotan II response, DMSO zero; activation, % at 8.9 µM; 360,000 compounds, 0.98% hits; P32245;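 active = activation above a per-plate cutoff, the mean activation of sample wells on that plate plus 3 SD, cut at about 8% in these data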
# HDAC3 inhib = human HDAC3 inhibition; recombinant HDAC3, fluorogenic peptide/trypsin coupled, fluorescence; O15379; inhibition, % at 8.3 µM; 320,000 compounds, 0.15% hits; in the data active = inhibition above about 26%, passing the limit was not always enough; inconclusive = no clear call, values can overlap the other calls
# NALP1 yeast inh = NALP1 inhibition | 280,000 compounds, 0.61% hits | S. cerevisiae NALP1/ASC/caspase-1 growth, X-gal OD620, 72 h | inhibition, % at 10 µM; in the data active = inhibition mostly above about 24%, no sharp cut-off; inactive = mostly below about 32%
# Hits are given with their value; – = inactive; ? = inconclusive; · = not tested or not shown. Most compounds without a hit are left out; they make up all but 4.2% or so of the library.
SMILES,UUG fidelity,MC4R antag cAMP,ALR inh,MC4R barr agon,HDAC3 inhib,NALP1 yeast inh
C[C@@H]1CN([C@H](C)CO)C(=O)c2cc(C#CC3CCCCC3)cnc2O[C@@H]1CN(C)S(C)(=O)=O,–,·,·,·,·,·
COc1cccc(N2CCN(S(=O)(=O)c3cn(C)cn3)CC2)c1,–,–,96,–,–,–
Cc1ncsc1CCC(=O)N1CCCC(Nc2ccc(F)c(F)c2)C1 (stereo not given),–,–,–,–,–,–
COc1ccc(NC2CCCN(C(=O)CCc3scnc3C)C2)cc1 (stereo not given),–,–,99,–,·,–
Cc1ccc(NC2CCCN(C(=O)CCc3scnc3C)C2)cc1C (stereo not given),–,–,99,–,–,–
COc1ccc(C(=O)C2CCCN(C(=O)CCc3scnc3C)C2)c(C)c1 (stereo not given),·,–,–,–,–,–
Cc1ncsc1CCC(=O)N1CCCC(Nc2ccc(C(C)C)cc2)C1 (stereo not given),–,–,86,–,–,–
C[C@H]1CN([C@@H](C)CO)C(=O)c2cc(-c3cccc(C#N)c3)cnc2O[C@H]1CN(C)C(=O)c1cnccn1,–,·,·,·,·,·
Cc1noc(C)c1NC(=O)Nc1cccc2c1O[C@H](CN(C)CC1CCCCC1)[C@@H](C)CN([C@H](C)CO)C2=O,–,·,·,·,·,·
C[C@@H]1CN([C@H](C)CO)S(=O)(=O)c2ccc(-c3ccccc3)cc2O[C@H]1CN(C)C(=O)Nc1ccccc1F,–,·,·,·,·,·
CCOC(=O)C1(C)C=C(Nc2ccc(O)cc2)C(=O)N1c1ccc(O)cc1 (stereo not given),–,–,100,–,–,–
CCOC(=O)C1(C)C=C(Nc2ccc(OC)cc2)C(=O)N1c1ccc(OC)cc1 (stereo not given),–,–,–,–,–,–
C[C@H](CO)N1C[C@H](C)[C@H](CN(C)C)Oc2cc(C#Cc3ccncc3)ccc2S1(=O)=O,–,·,·,·,·,·
Cc1ccc(C2NC(=S)N3C(c4ccc(C)cc4)NC(=S)N23)cc1 (stereo not given),–,–,·,–,·,·
S=C1NC(c2ccccc2)N2C(=S)NC(c3ccccc3)N12 (stereo not given),–,–,98,–,–,–
COC(=O)c1ccc(CSCC(=O)Nc2ccccc2)cc1,–,–,92,–,–,–
O=C(CSCc1ccc(C(=O)O)cc1)Nc1ccc2ccccc2c1,·,–,99,–,·,–
C[C@@H]1CN([C@@H](C)CO)C(=O)c2cc(C#C[C@@H](C)O)cnc2O[C@H]1CN(C)C(=O)Nc1ccc(C(F)(F)F)cc1,–,·,·,·,·,·
CCN(CC)C(=O)CSc1nc2ccc(NC(=O)CSc3nccn3C)cc2s1,·,–,99,–,–,–
CCCC(=O)Nc1ccc2nc(SCC(=O)Nc3nccs3)sc2c1,–,–,99,–,–,–
CCN(CC)C(=O)CSc1nc2ccc(NC(=O)CSc3nnc(N)s3)cc2s1,–,–,–,–,–,–
O=C(Nc1ccccc1F)N1[C@H](CO)[C@@H]2c3ccccc3NC[C@@H]21,–,·,·,·,·,·
COc1ccc(NC(=O)N[C@H]2CC[C@H](CCn3cc(C4(O)CCCC4)nn3)O[C@H]2CO)cc1,–,·,·,·,·,·
CO[C@H]1CN(C)C(=O)c2ccc(NC(C)=O)cc2OC[C@@H](C)NC[C@@H]1C,–,·,·,·,·,·
CC(=O)/C(N=Nc1ccc(C(=O)O)cc1)=C(\C)O,–,–,–,–,·,43
SMILES,UUG fidelity,MC4R antag cAMP,ALR inh,MC4R barr agon,HDAC3 inhib,NALP1 yeast inh
CC(=O)/C(N=Nc1ccc(OC(F)(F)F)cc1)=C(\C)O,·,–,–,–,–,·
Cc1c(C(=O)N(C)C)c2cc(Cl)ccc2n1O,·,–,98,–,–,–
CCOC(=O)c1c(C)n(O)c2ccc(Cl)cc2c1=O,–,–,–,–,–,–
Cc1c(C(=O)N(C)C)c2ccc(Cl)cc2n1O,–,–,99,–,–,–
CN1C(=O)c2cc(NC(=O)c3ccc(F)c(F)c3)ccc2OC[C@H]2O[C@@H](CC(=O)O)CC[C@@H]21,–,·,·,·,·,·
CCN(CCO)Cc1cc(=O)oc2cc3c(cc12)CCC3,·,–,87,–,–,–
C[C@@H]1CN([C@H](C)CO)C(=O)c2cc(NS(=O)(=O)c3ccc(F)cc3)ccc2O[C@@H](C)CCCCO[C@@H]1CN(C)Cc1ccccc1,–,·,·,·,·,·
O=C(O)C1=C[C@@H](c2ccc(C(F)(F)F)cc2)C[C@@H](OCc2ccc(CO)cc2)O1,–,–,·,–,34,–
O=CC1=C(c2ccccc2)Oc2ccccc2O1,–,–,–,–,–,52
CO[C@@H]1CN(C)C(=O)c2ccc(NC(=O)C3CC3)cc2OC[C@H](C)N(C(=O)C2CCOCC2)C[C@@H]1C,–,·,·,·,·,·
CN1C(=O)c2cc(NC(=O)C3CCCCC3)ccc2OC[C@@H]2O[C@H](CC(=O)NC3CCCC3)CC[C@H]21,–,·,·,·,·,·
COc1ccc(Cl)cc1NC(=S)NNC(=O)c1cccnc1,·,–,89,–,–,–
COc1ccccc1NC(=S)NNC(=O)c1c(Cl)c(C)nn1C,–,–,86,–,–,–
COc1ccccc1NC(=S)NNC(=O)c1cc(C)nn1C,–,–,?,–,–,–
COc1ccccc1NC(=S)NNC(=O)c1cc(C)n(C)n1,–,–,77,–,–,–
O=C(c1ccc(F)cc1)N1C[C@H]2[C@@H](c3ccccc31)[C@@H](CO)N2Cc1ccc2c(c1)OCO2,–,·,·,·,·,·
CO[C@H]1CN(C)C(=O)c2ccc(NS(=O)(=O)C3CCCCC3)cc2OC[C@@H](C)NC[C@H]1C,–,·,·,·,·,·
COc1cccc(NC(=O)Nc2nc(-c3ccc(OC)c(OC)c3)cs2)c1,–,–,·,19,–,–
COc1ccc(-c2csc(NC(C)=O)n2)cc1OC,–,–,–,–,–,–
Cc1cc(C)cc(-n2nnnc2SCC(=O)Nc2nc(-c3ccc(F)cc3)cs2)c1,–,–,–,30,–,–
COc1ccc(-c2csc(NC(=O)[C@H](C)N3C(=O)C4CC=CCC4C3=O)n2)cc1OC (stereo not given in full),–,–,91,–,?,·
COc1ccc(-c2csc(NC(=O)CSc3nnnn3C)n2)cc1OC,·,–,98,–,–,·
CC(C(=O)Nc1nc(-c2ccc(F)c(F)c2)cs1)N1C(=O)C2CC=CCC2C1=O (stereo not given),–,–,–,–,–,·
O=C(CCN1CCCCC1)N[C@H]1CC[C@@H](CCn2cc(-c3ccccc3)nn2)O[C@H]1CO,–,·,·,·,·,·
O=C(N[C@H]1CC[C@H](CCNS(=O)(=O)c2ccc(F)cc2)O[C@H]1CO)c1cnccn1,–,·,·,·,·,·
O=C1NC(C(=O)O)=CC(c2ccc([N+](=O)[O-])cc2)N1 (stereo not given),·,–,78,–,–,–
C[C@H]1CN([C@@H](C)CO)C(=O)c2cc(C#CCN(C)C)cnc2O[C@H]1CN(C)Cc1ccc(F)cc1,–,·,·,·,·,·
COc1ccc(/C(=N\Nc2ccccc2C(=O)O)c2ccccc2)cc1,·,–,99,–,–,–
